LMNA splice mod = changes lamin A minigene splicing in HeLa cells; AID 1487; Potency, µM (highest dose often 46.1 µM), hits mostly inhibitors; 0.01% of 200,000 active; HeLa LMNA splicing GFP/RFP minigene ratio, 48 h; active = well fitted inhibition curve with a large enough effect in the signal ratio, with a control signal flat, not every such curve was filed as active; inconclusive = small, poorly fitted or top-dose-only effect, or effect the other way, or a change in a side signal; the % refers to the signal ratio
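Read-out is the ratio of GFP to DsRed2 object intensity, acquired by 488 nm laser-scanning cytometry on HeLa lamin A-EGFP minigene reporter cells. Compound incubation 48 hrs at 37 °C in Opti-MEM with 2% FBS; DMSO 0.5% final.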
KDM4E inh = inhibitors of human JMJD2E histone demethylase; B2RXH2; JMJD2E catalytic domain, FDH-coupled NADH fluorescence (FDH is formaldehyde dehydrogenase); Potency, µM (highest dose often 57.1 µM), most hits filed as inhibitors; 1.6% of 230,000 active; active = well fitted inhibition curve with a large enough effect, not every such curve was filed as active; inconclusive = small, poorly fitted or top-dose-only effect, or another doubt; inactive = no such curve, though single readings can be large or run the other way; note: nearly all actives have a fitted effect of over 50% in size
Sfp PPTase inh = blocks B. subtilis Sfp PPTase activity; Q9F4F7; Biochemical Sfp PPTase activity, qHTS; Potency, µM, usual class: inhibitors; 3.5% of 310,000 active; AID 1490;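 note: the enzyme is Sfp with the accession as filed and its product quenches rhodamine fluorescence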
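Sfp 15 nM + cpd, 15 min RT; start w/ rhodamine-CoA 5 uM, BHQ-2-YbbR 12.5 uM (final); 50 mM Hepes pH 7.6, 10 mM MgCl2, 0.01% NP-40, 0.01% BSA; read 525/598 nm at 0 and 30 min.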
ALDH1A1 inh = inhibitors of human aldehyde dehydrogenase 1A1. P00352. Purified ALDH1A1, NADH fluorescence, propionaldehyde substrate. Potency, µM (titrated, usually from 75.3 µM), most hits filed as inhibitors. 7.3% of 220,000 active; active = well fitted inhibition curve with a large enough effect, not every such curve was filed as active; inconclusive = small, poorly fitted or top-dose-only effect, or another doubt; inactive = no such curve, though single readings can be large or run the other way
miR-21 reporter = raises the signal of a miR-21 reporter | HeLa miR-21 FLuc reporter, luciferase, 48 h | Potency, µM (doses to about 38.3 µM) | 340,000 tested, under 10 active | AID 2288; active = well fitted rising curve with a large enough effect; inconclusive = small, poorly fitted or top-dose-only effect; inactive = no such curve, though single readings can be large or run the other way;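 also: miR-21 action dims this reporter so a rising signal means less miR-21 action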
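HeLa cells endogenously expressing miR-21, stably carrying CMV-driven firefly luciferase with a downstream miR-21 binding site, 2000 cells/well. Titrations up to approximately 40 uM, 48 hours; luciferase luminescence read.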
G9a inh = blocks human histone lysine methyltransferase G9a | Q96KQ7 | 8.8% of 350,000 active | G9a H3K9 monomethylation, AlphaScreen, 2 h | Potency, µM (doses to about 102 µM), hits mostly inhibitors; note: nearly all actives have a fitted effect of over 75% in size
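AlphaScreen detection with an anti-monomethyl H3K9 antibody quantified product after a 2 h room-temperature reaction containing 500 nM biotinylated H3K9 peptide, 20 µM SAM and 20 nM enzyme, which had been preincubated 15 min with compound.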
Numbers stand for hits; . = inactive; ? = inconclusive; / = not tested or not shown; [ ] = remark or other dose. Sampled rows, rich in hits. Any-hit rate of the full collection: about 13%. Unless noted, calls come from the whole dose curve; as a rule, active = well fitted curve in the direction sought with a large enough effect; inconclusive = small, poorly fitted or top-dose-only effect, or another doubt; inactive = no such curve, though single readings can be large; an effect the other way counts as inactive or inconclusive.

SMILES	LMNA splice mod	KDM4E inh	Sfp PPTase inh	ALDH1A1 inh	miR-21 reporter	G9a inh
O=C(NC1CCCC1)c1ccc2c(=O)n(Cc3ccccc3)c(SCc3ccc([N+](=O)[O-])cc3)nc2c1	?	/	/	/	.	.
Cc1ccccc1CN1C(=O)c2ccccc2S(=O)c2ccc(C(=O)NC3CCC(C)CC3)cc21 (stereo not drawn)	?	/	/	/	.	.
COc1ccc(C2CC(=O)C(C(c3ccc(O)cc3)C3C(=O)CC(c4ccc(OC)cc4)CC3=O)C(=O)C2)cc1 (stereo not drawn)	/	.	35.5µM	/	.	25.1µM
COc1ccc(C2=CC(=O)CC(c3ccc(OC)cc3)C2)cc1 (stereo not drawn)	.	.	.	?	.	.
NCCCC[C@H]1CN=C(N)N1CCC12CC3CC(CC(C3)C1)C2	/	.	.	/	.	.
Cn1c(=O)n(C/C=C/c2ccccc2)c(=O)c2c1nc1n2CCN1c1ccccc1	?	/	/	/	.	.
Cc1ccc(OCCN2C(=O)c3ccccc3C2=O)cc1	.	.	.	.	.	.[12.7 µM]
Cc1ccc2c(c1)C(=O)C(=O)N2CCOc1ccccc1	?	.	.	1.26µM	.	44.7µM
Cc1cccc(OCCN2C(=O)C(=O)c3cc(C)ccc32)c1	?	.	.	0.631µM	.	.[12.7 µM]
Cc1cccc(OCCN2C(=O)C(=O)c3cccc(C)c32)c1	.	.	.	0.159µM	.	.
COc1cc(Cl)c(C)cc1NC(=O)c1cn(C2CCCC2)c(=O)c2c1c1ccccc1n2C	/	/	/	/	.	.
O=C1CC(c2ccccc2)Cc2[nH]c(=O)c(-c3nc(-c4ccc(Cl)cc4)cs3)cc21 (stereo not drawn)	/	/	/	/	.	?
CN1CC[C@@]2(CCCN(C(=O)c3cccn3C)C2)C1	/	/	.	.	/	.[12.7 µM]
N[C@@](C(=O)O)(c1ccc(P(=O)(O)O)cc1)C1CC1	/	.	.	.	/	/
COc1ccc(C2c3[nH]c4ccccc4c3C[C@H]3C(=O)N(C4CCN(Cc5ccccc5)CC4)CC(=O)N23)cc1OC (stereo partly drawn)	/	/	.	/	.	12.6µM
COc1ccc(Cl)cc1N1C(=NC(=O)C2CCCO2)SC2CS(=O)(=O)CC21 (stereo not drawn)	/	/	.	/	.	.
COc1cccc(N2C(=NC(=O)C3CCCO3)SC3CS(=O)(=O)CC32)c1 (stereo not drawn)	/	/	.	/	.	.
O=C(/C=C/c1ccc(Br)o1)Nc1nnc(C2CC2)s1	/	.	?	.	.	56.2µM
CCc1ccccc1NC(=O)CNC(=O)CNC(=O)Cc1ccccc1	/	/	/	/	/	.
NS(=O)(=O)c1ccc(CCNCc2cc(Br)ccc2OCc2ccccc2F)cc1	/	.	50.1µM	.	.	.
NS(=O)(=O)c1ccc(CCNCc2cc(Cl)ccc2OCc2ccccc2)cc1	/	/	.	/	.	.
S=c1[nH]nc(-c2ccco2)n1/N=C/c1ccc(Cl)c(Cl)c1	.	.	.	?	.	1.58µM
S=c1[nH]nc(-c2ccccn2)n1/N=C/c1cccc(Cl)c1	.	.	.	?	.	1.58µM
S=c1[nH]nc(-c2ccccn2)n1/N=C/c1ccc(-c2ccccc2Br)o1	?	.	.	?	.	1.41µM
S=c1[nH]nc(-c2cccc(Cl)c2)n1/N=C/c1ccc(-c2ccccc2Br)o1	/	.	.	/	.	?
SMILES	LMNA splice mod	KDM4E inh	Sfp PPTase inh	ALDH1A1 inh	miR-21 reporter	G9a inh
Cc1ccc(/C=N/n2c(-c3ccco3)n[nH]c2=S)cc1	/	.	.	/	.	0.631µM
Cc1nc(CC(=O)Nc2cccc(C)c2C)cs1	/	/	/	/	.	.
CCCC[P+](CCCC)(CCCC)Cc1ccc(NC(=O)[C@@H](Cc2ccc3ccccc3c2)NC(=NC2CCCCC2)NC2CCCCC2)cc1	/	.	?	.	/	/
Cn1cccc1/C=N/n1c(-c2ccco2)n[nH]c1=S	.	.	?	.	.	/
S=c1[nH]nc(-c2ccco2)n1/N=C/c1c(Cl)cccc1Cl	/	.	.	/	.	0.398µM
Cc1cccc(/C=N/n2c(-c3ccco3)n[nH]c2=S)c1	/	.	?	/	.	/
S=c1[nH]nc(-c2ccco2)n1/N=C/c1ccccn1	.	.	79.4µM	.	.	.
S=c1[nH]nc(-c2ccco2)n1/N=C/c1cccc(Cl)c1	/	.	.	/	.	0.708µM
S=c1[nH]nc(-c2ccccn2)n1/N=C/c1ccco1	/	.	44.7µM	/	.	/

Bioassay records deposited in PubChem by National Center for Advancing Translational Sciences (NCATS).
